# Test results published in patent publication US5837862A, “Sialyl Lewis X mimetics incorporating mannopeptides” (The Scripps Research Institute, priority 1996, dated 1998).
# Read-outs that look alike come from different tables or passages of the source.
# Tests used:
# [1] = biological target: T1, E-selectin (Homo sapiens, UniProt P16581); test: E-selectin inhibition assay (Weitz-Schmidt et al.); format: binding; settings: SLex reference value listed with mimetics 2-6
# T1 sequence (P16581 22-610): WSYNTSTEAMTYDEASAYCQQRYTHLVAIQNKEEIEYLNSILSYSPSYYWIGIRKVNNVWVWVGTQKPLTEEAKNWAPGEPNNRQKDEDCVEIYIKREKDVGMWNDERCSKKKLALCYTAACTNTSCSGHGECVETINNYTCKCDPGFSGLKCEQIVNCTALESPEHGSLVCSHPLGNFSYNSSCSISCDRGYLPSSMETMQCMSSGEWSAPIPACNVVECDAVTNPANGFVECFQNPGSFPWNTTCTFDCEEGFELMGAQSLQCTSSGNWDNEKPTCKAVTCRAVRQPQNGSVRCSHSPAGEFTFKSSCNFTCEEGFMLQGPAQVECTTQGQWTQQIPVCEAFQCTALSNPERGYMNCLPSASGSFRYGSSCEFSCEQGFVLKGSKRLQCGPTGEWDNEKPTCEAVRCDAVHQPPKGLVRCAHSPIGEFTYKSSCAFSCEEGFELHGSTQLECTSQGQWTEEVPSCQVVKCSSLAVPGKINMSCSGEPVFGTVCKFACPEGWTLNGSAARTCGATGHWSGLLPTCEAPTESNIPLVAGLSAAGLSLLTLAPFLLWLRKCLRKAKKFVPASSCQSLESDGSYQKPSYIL
# [2] = biological target: T2, P-selectin (Homo sapiens, UniProt P16109); test: P-selectin inhibition assay; format: binding; settings: at 3 mM
# T2 sequence (P16109 42-830): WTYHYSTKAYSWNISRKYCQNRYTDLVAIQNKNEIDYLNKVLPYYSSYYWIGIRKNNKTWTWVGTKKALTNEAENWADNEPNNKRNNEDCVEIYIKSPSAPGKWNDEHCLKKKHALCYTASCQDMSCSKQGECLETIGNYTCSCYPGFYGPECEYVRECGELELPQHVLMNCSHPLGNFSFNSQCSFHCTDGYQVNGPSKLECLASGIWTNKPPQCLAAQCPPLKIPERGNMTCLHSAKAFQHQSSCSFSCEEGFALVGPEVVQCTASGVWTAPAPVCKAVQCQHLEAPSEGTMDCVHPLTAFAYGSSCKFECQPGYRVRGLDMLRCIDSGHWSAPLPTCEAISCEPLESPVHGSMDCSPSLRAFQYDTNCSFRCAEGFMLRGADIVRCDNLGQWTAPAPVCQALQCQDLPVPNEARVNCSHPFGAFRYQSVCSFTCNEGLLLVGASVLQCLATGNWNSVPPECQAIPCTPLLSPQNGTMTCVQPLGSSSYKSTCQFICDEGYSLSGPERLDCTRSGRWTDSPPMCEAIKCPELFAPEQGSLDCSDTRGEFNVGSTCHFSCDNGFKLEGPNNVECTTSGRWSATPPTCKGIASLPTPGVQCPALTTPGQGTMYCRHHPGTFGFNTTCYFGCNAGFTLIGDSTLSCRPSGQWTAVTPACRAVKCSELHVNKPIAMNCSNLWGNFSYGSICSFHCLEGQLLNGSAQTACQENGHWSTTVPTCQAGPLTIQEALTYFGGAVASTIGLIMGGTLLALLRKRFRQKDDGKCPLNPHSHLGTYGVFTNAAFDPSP
# [3] = biological target: T1, E-selectin; settings: literature value; cited from earlier work
# [4] = biological target: T3, L-selectin (Homo sapiens, UniProt P14151); test: L-selectin inhibition assay; format: binding; settings: at 3 mM
# T3 sequence (P14151 39-372): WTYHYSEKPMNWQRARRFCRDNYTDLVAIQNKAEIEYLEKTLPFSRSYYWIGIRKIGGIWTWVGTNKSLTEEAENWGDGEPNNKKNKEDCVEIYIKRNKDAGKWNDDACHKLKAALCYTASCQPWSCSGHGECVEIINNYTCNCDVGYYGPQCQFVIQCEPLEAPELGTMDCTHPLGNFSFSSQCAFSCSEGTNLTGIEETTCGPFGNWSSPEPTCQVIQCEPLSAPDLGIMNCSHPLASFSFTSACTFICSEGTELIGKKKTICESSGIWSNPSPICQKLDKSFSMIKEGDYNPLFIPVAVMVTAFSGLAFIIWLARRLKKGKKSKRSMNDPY
# [5] = biological target: T2, P-selectin; settings: literature value; cited from earlier work
substance,measurement,setting,value
NeuAcα2→3Galβ1→4(Fucα1→3)GlcNAc [SLex],IC50,[1],500 µM
same,inhibition of P-selectin,[2],0%
same,IC50,[3],500 µM
same,inhibition of L-selectin,[4],50%
same,IC50,[5],> 3000 µM
